{"source": "ChEMBL document CHEMBL1955766", "about": "“Structure guided development of novel thymidine mimetics targeting Pseudomonas aeruginosa thymidylate kinase: from hit to lead generation” (J Med Chem, 2012)", "note": "pIC50: −log10 of the molar value."}
{"experiment": "Inhibition of Pseudomonas aeruginosa thymidylate kinase expressed in Escherichia coli BL21 (DE3) cells assessed as phosphorylation of dTMP to dTDP after 20 mins by spectrophotometric analysis", "procedure,_shortened": "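PaTMK from pET15b in E. coli BL21 DE3, purified by HisTrap and Superdex 200, used at 40 nM. dTDP formation was coupled via PK/LDH/NDP kinase to NADH oxidation (A340) over 20 min at 25 °C. Conditions: 2 mM ATP, 54 μM TMP, 2 mM PEP, 0.22 mM NADH, HEPES pH 8.0. 20-point 1.67-fold dilutions from 200 or 100 μM were run in duplicate; IC50 from initial rates, averaged over ≥2 runs.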"}
{"smiles": "Cn1c(=O)[nH]c2ncc(-c3ccccc3)cc21", "pIC50": 4.24}
{"smiles": "Cc1cn([C@H]2C[C@H](O)[C@@H](CF)O2)c(=O)[nH]c1=O", "pIC50": 4.70}
{"smiles": "Cn1c(=O)[nH]c2ncc(-c3cccc(C(N)=O)c3)cc21", "pIC50": 6.36}
